Values of other authors in publication PMC2845799.

Target: FRB domain FRB (Homo sapiens) (UniProt P42345)

FKBP FKBP domain (from UniProt P62942)
Kd: < 1 nM
